Yeast mating assay 2: variants of the scFv Ab-95

The target is the same throughout: PDVDLGDISGINAS, from the HR2 region of SARS-CoV-2 spike.

Each scFv is VH, the linker GGGGSGGGGSGGGGS, VL, as in the parent Ab-95, and differs from it in the CDRs of the light chain only.
VH: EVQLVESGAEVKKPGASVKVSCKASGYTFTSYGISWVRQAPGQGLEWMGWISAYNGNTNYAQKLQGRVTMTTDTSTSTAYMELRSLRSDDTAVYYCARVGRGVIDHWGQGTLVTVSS
VL: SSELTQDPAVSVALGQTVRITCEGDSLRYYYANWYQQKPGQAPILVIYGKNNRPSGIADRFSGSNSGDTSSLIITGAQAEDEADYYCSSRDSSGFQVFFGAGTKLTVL

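The starting antibody came from a phage panning campaign against this peptide. Library AAYL52 holds single substitutions and randomly drawn double and triple substitutions in the CDRs. The scFvs were displayed on barcoded MATa yeast, the peptide on MATalpha yeast. After mating in shaken culture at 30 °C for 16 h, diploids were selected and their barcode pairs sequenced. A regression on co-assayed BCL2-family reference pairs converts the normalised counts of each replicate to an apparent Kd. There are three technical replicates.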

Each variant is given by its three light chain CDRs, as the data file delimits them; those of the parent are EGDSLRYYYAN, GKNNRPS, SSRDSSGFQVF.
All variants listed here change D91 of the VL, counted from its first residue.
The read-out is the apparent dissociation constant on a log10 scale (nM): the lower, the stronger.
Replicates are averaged; those with no signal do not enter the mean.
"nd" marks a missing value. The strain was present, yet no cells mated with the target were sequenced in any replicate, which points to weak or no binding.
Entries are sorted by rising average, undetected variants last.
Background: pairings of library AAYL52 with three empty control strains gave a value in 28% of cases (median 3.91, 5th percentile 2.90). Values in that range, when seen in few replicates, are hard to tell from nonspecific mating. The control count says in how many pairings with the empty strains this scFv gave a signal.
In this assay the parent's reference entry averaged 2.31; its copy inside this library read 2.25.

For EGSSLRYYYAN | GKNNRPS | SSRCSMGFQVF, the assay gave 2.18 (3 of 3 replicates; controls 2 of 9).
For EGDSLRYYYAN | GKNNRPS | SARCSSGFQVF, the assay gave 2.56 (3 of 3 replicates; controls 3 of 9).
For EGDSLRYYYAN | GKNNRPS | SSRFSSGFYVF, the assay gave 2.58 (3 of 3 replicates; controls 5 of 9).
For EGDSLRKYYAN | GKNCRPS | SSRASSGFQVF, the assay gave 2.78 (3 of 3 replicates; controls 3 of 9).
For EGDSLRYYYAN | GKNVRPS | SSRSSSGLQVF, the assay gave 2.94 (3 of 3 replicates; controls 3 of 9).
For EGDCLRYYYAN | GKNNRPT | SSRGSSGFQVF, the assay gave 3.00 (3 of 3 replicates; controls 3 of 9).
For EGDSLRYYYAN | GKQTRPS | SSRSSSGFQVF, the assay gave 3.02 (3 of 3 replicates; controls 3 of 9).
For EGDSLRYYYAN | GKNNRPS | SSRISSDVQVF, the assay gave 3.09 (3 of 3 replicates; controls 4 of 9).
For EGDSLRKYYAN | GKENRPS | SSRGSSGFQVF, the assay gave 3.12 (3 of 3 replicates; controls 6 of 9).
For EGDSLRYYYAN | GKNNRPS | SSRWSSWNQVF, the assay gave 3.13 (3 of 3 replicates; controls 0 of 9).
For EGDSLRRTYAN | GKNNRPS | SSRTSSGFQVF, the assay gave 3.15 (3 of 3 replicates; controls 6 of 9).
For QGDSLRYYYAN | GKCNRPS | SSRWSSGFQVF, the assay gave 3.18 (3 of 3 replicates; controls 4 of 9).
For WGDSLRYYYAN | GKNNRPS | SSRSSSGKQVF, the assay gave 3.26 (3 of 3 replicates; controls 7 of 9).
For EGDSLRYYYAN | GKNNRPS | SSRESSGFQVF, the assay gave 3.26 (2 of 3 replicates; controls 2 of 9).
For EGESLRYYYAN | GKNNRPS | SSHHSSGFQVF, the assay gave 3.29 (3 of 3 replicates; controls 3 of 9).
For GGDSLRYYYAN | AKNNRPS | SSRASSGFQVF, the assay gave 3.30 (2 of 3 replicates; controls 3 of 9).
For EGDSLRYYYAN | GKNFRPS | MSRCSSGFQVF, the assay gave 3.49 (2 of 3 replicates; controls 0 of 9).
For EGDSWRRYYAN | GKNNRPS | SSRRSSGFQVF, the assay gave 3.54 (1 of 3 replicates; controls 6 of 9).
For EIDSLRLYYAN | GKNNRPS | SSRASSGFQVF, the assay gave 3.61 (3 of 3 replicates; controls 2 of 9).
For EGDSLRYYYAN | NKNNRPS | ISRPSSGFQVF, the assay gave 3.62 (3 of 3 replicates; controls 1 of 9).
For LGDSLRYYYAN | GKNNRPS | SSRTSSVFQVF, the assay gave 3.63 (2 of 3 replicates; controls 2 of 9).
For EGDSLRVYYQN | GKNNRPS | SSRNSSGFQVF, the assay gave 3.72 (3 of 3 replicates; controls 3 of 9).
For EGDQLRYYYAN | GKNNRPS | SYRESSGFQVF, the assay gave 3.73 (2 of 3 replicates; controls 2 of 9).
For EGDSLRYYYAN | CKNNRPS | SSRVSSGFSVF, the assay gave 4.00 (3 of 3 replicates; controls 2 of 9).
For EGDDLRYYYAN | GKNNRPS | SSRQSSGFQSF, the assay gave 4.06 (2 of 3 replicates; controls 3 of 9).
For EGCSLSYYYAN | GKNNRPS | SSRKSSGFQVF, the assay gave 4.11 (1 of 3 replicates; controls 2 of 9).
For EGDSLRYYYAN | VKNNRPS | SSRYSDGFQVF, the assay gave 4.15 (2 of 3 replicates; controls 1 of 9).
For EGWSLRYYYAN | GKNNRPS | RSRHSSGFQVF, the assay gave 4.27 (2 of 3 replicates; controls 2 of 9).
For EGDSLRYYYAN | GKNNQPY | SSRPSSGFQVF, the assay gave 4.36 (1 of 3 replicates; controls 5 of 9).
For EGDSLRYYYAN | MKNNRPS | SSRMLSGFQVF, the assay gave 4.47 (2 of 3 replicates; controls 4 of 9).
For EGDSLRYYYAN | GKDNRPS | SSRLSSGFWVF, the assay gave 4.85 (1 of 3 replicates; controls 1 of 9).
For EGDSLRVYYAN | GKYNRPS | SSRVSSGFQVF, the assay gave 5.35 (1 of 3 replicates; controls 1 of 9).
For EGDSLRYYSAN | GKNPRPS | SSRVSSGFQVF, the assay gave 5.96 (1 of 3 replicates; controls 2 of 9).
For EWDSLRYYYAN | GKNNRPS | SSRKSHGFQVF, the assay gave nd (0 of 3 replicates; controls 3 of 9).
For EGDSLRYYYAN | GKNNRPS | SSRNSSMFYVF, the assay gave nd (0 of 3 replicates; controls 0 of 9).
For EGDSLRYYWAN | EKNNRPS | SSRISSGFQVF, the assay gave nd (0 of 3 replicates; controls 1 of 9).

The 6 strongest on average among those seen in every replicate, once more:

| CDR-L1 | CDR-L2 | CDR-L3 | mean log10 Kd (nM) | seen in | control signals |
|---|---|---|---|---|---|
| EGSSLRYYYAN | GKNNRPS | SSRCSMGFQVF | 2.18 | 3 of 3 | 2 of 9 |
| EGDSLRYYYAN | GKNNRPS | SARCSSGFQVF | 2.56 | 3 of 3 | 3 of 9 |
| EGDSLRYYYAN | GKNNRPS | SSRFSSGFYVF | 2.58 | 3 of 3 | 5 of 9 |
| EGDSLRKYYAN | GKNCRPS | SSRASSGFQVF | 2.78 | 3 of 3 | 3 of 9 |
| EGDSLRYYYAN | GKNVRPS | SSRSSSGLQVF | 2.94 | 3 of 3 | 3 of 9 |
| EGDCLRYYYAN | GKNNRPT | SSRGSSGFQVF | 3.00 | 3 of 3 | 3 of 9 |

Reference: Engelhart et al. 2022, doi:10.1038/s41597-022-01779-4. File: FLAb, binding data.